According to publication PMC7002685, “Inhibition of vascular calcification by inositol phosphates derivatized with ethylene glycol oligomers” (Nature Communications, 2020):

Tests used:
vascular calcification [1] = assay: Vitamin D3 (s.c.) + high-phosphate diet rat model of VC; assay type: in vivo; conditions: 30 mg/kg s.c. twice daily for 11 days
Method: Male Sprague-Dawley rats were housed two per cage with free access to water and standard chow and submitted to a 12-h light/dark cycle. Compounds were administered and doses calculated using the salt form. […] Sham groups were injected with 0.9% NaCl instead of vitamin D3. […] Blood samples of 500 µL were collected on day 8 by fine needle from the tail vein and at sacrifice on day 12. […] Serum creatinine, calcium, and phosphorus were measured using standard colorimetric biochemistry analysis (Cobas Mira). Calcium tissue content was measured from dried carotids, whole left kidneys, and abdominal aortas by ICP-MS analysis. […] Images of the rat aortic trees were acquired on a Canon 5D MARKIII (Canon, Tokio, Japan) equipped with a 50 mm lens.
Calcium tissues’ contents were measured at the Central Environmental Laboratory (EPFL, Lausanne, Switzerland). Dry tissues (90 °C, overnight) were weighed and digested by aqua regia overnight at RT, followed by 2 h reflux, after which the solvent was completely evaporated with a steady flow of nitrogen gas. The dried samples were then reconstituted and homogenized with nitric acid. Calcium standards and samples were diluted with nitric acid. Absorbance was recorded using ICP-OES (Shimadzu ICPE-9000, Shimadzu). Two technical replicates were measured for each sample. […] Tissue concentrations of calcium were expressed as mg/g of dry tissue.

vascular calcification [2] = assay: Vitamin D3 (oral) + warfarin diet rat model of VC; conditions: all dose groups

Structure (SMILES): COCCOCCO[C@@H]1[C@@H](OP(=O)(O)O)[C@H](OCCOCCOC)[C@@H](OP(=O)(O)O)[C@@H](OP(=O)(O)O)[C@H]1OP(=O)(O)O [(OEG2)2-IP4, 4,6-Di-O-(methoxy-diethyleneglycol)-myo-inositol-1,2,3,5-tetrakis(phosphate)]
- carotid VC (calcium by ICP-MS) (vascular calcification [1]): significantly decreased formation of carotid VC
- calcification in the heart and the left kidney (vascular calcification [2]): no differences between treatment groups were observed
